From patent US11413324B2, “Compositions and methods for treating peripheral nerve disease, disorders, and injuries” (University of Virginia Patent Foundation, priority 2017, dated 2022)

system: peripheral olig2^+ cells; assay: Chemical screen of the LOPAC 1280 library: peripheral olig2+ cells scored in olig2:dsred larvae at 72 hpf; format: in vivo, zebrafish; conditions: 10 μM compound, 1% DMSO, 24 to 72 hpf, blind secondary screen in triplicate

SMILES	validated hit: at least one peripheral olig2+ cell in 3/3 or 2/2 larvae
COc1cc(/C=C(\C#N)C(=O)c2ccc(O)c(O)c2)cc(I)c1O [I-OMe-Tyrphostin AG 538]	Validated hits from screen using LOPAC ®^1280.
O=C(O)c1ccccc1Nc1ccccc1 [N-Phenylanthranilic acid]	Validated hits from screen using LOPAC ®^1280.
OCc1cc(C(O)CNCCCCCCOCCCCc2ccccc2)ccc1O (stereo not shown) [Salmeterol xinafoate]	Validated hits from screen using LOPAC ®^1280.
S=C(Nc1ccccc1)Nc1nccs1 [l-Phenyl-3-(thiazolyl)-2-thiourea, 1-phenyl-3-(2-thiazolyl)-2-thiourea]	Validated hits from screen using LOPAC ®^1280.

same assay, conditions: zebrafish, in vivo

SMILES	validated hit: at least one peripheral olig2+ cell in 3/3 or 2/2 larvae
CC(=O)SCC[N+](C)(C)C.[Cl-] [Acetylthiocholine chloride]	Validated hits from screen using LOPAC ®^1280.
C[C@H]1CCC/C=C/[C@@H]2C[C@H](O)C[C@H]2[C@H](O)/C=C/C(=O)O1 [Brefeldin A]	Validated hits from screen using LOPAC ®^1280.
N=C(N)NOCC[C@H](N)C(=O)O.O=S(=O)(O)O [L-Canavanine sulfate]	Validated hits from screen using LOPAC ®^1280.
